## Yeast mating assay 2: variants of the scFv Ab-91

From the AlphaSeq antibody data of Engelhart et al. 2022 (doi:10.1038/s41597-022-01779-4), copy in the FLAb collection.

Target peptide (SARS-CoV-2 spike, HR2 region): PDVDLGDISGINAS

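The starting antibody came from a phage panning campaign against this peptide. The library (AAYL51) carries one to three amino acid substitutions per variant, with no insertions or deletions. The scFvs were displayed on barcoded MATa yeast, the peptide on MATalpha yeast. The frequency of each diploid, read from paired DNA barcodes, reflects how well the two displayed proteins bind. Scores were corrected for input abundance and mapped to Kd with protein pairs of known affinity run in the same pool. Mating was done three times.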

The variants keep the light chain, the linker and the frameworks of Ab-91 (scFv order VL, the linker GGGGSGGGGSGGGGS, VH).
VL: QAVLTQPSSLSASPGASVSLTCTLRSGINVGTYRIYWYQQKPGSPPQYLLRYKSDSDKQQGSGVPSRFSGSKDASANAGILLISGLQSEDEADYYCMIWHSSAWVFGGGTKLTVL
VH: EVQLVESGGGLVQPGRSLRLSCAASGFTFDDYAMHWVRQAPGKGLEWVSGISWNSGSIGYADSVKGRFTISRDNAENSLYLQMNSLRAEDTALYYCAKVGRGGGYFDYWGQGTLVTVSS

Each variant is given by its three heavy chain CDRs, as the data file delimits them; those of the parent are GFTFDDYAMH, GISWNSGSIGYADSVK, VGRGGGYFDY.
Affinities are written as log10 Kd with Kd in nM; a lower number is a better binder.
Replicates are averaged; those with no signal do not enter the mean.
Where no diploid with the target was found in that replicate, the entry reads "nd": below detection, most likely a poor binder, though not proof of it.
As a blank, each scFv also met three strains without target: over library AAYL51, 21% of these pairings were detected, typically at 4.54 and seldom below 3.26. For each scFv, signals with the empty controls are counted beside the result, with their mean in brackets.
For reference, the parent read 1.86 as the reference entry and 0.88 as a member of this library.

| CDR-H1 | CDR-H2 | CDR-H3 | log10 Kd (nM) by replicate | mean, log10 nM | control signals |
|---|---|---|---|---|---|
| GFTFDDYAMH | GISWNSGSTGYADHVK | VDRGGGYFDY | 3.00 nd nd | 3.00 | 1 of 9 (3.82) |
| GFTFDDYAMH | GISWNSHSIGGADSVK | VGEGGGYFDY | 3.07 5.62 nd | 4.34 | 0 of 9 |
| GFTFDDYAMH | GICWNSGSIGYADSCK | VGEGGGYFDY | nd nd nd | nd | 1 of 9 (3.09) |
| GPTFDDYAMH | GISWTSGSIGYADSVK | VGRGGGYFDY | nd nd nd | nd | 0 of 9 |
| GFQFDDYAMH | GISWNSGSWGYADSVK | VGRGGGYFDN | 2.69 2.73 2.37 | 2.60 | 4 of 9 (5.28) |
| GFTFDRYAMM | GISWNSGSILYADSVK | VGRGGGYFDY | 6.07 4.83 nd | 5.45 | 1 of 9 (3.77) |
| GFLTKDYAMH | GISWNSGSIGYADSVK | VGRGGGYFDY | 2.97 3.39 2.91 | 3.09 | 4 of 9 (4.86) |
| GFTFPDYAMH | GISWRSGSIGYADSDK | VGRGGGYFDY | 5.63 nd nd | 5.63 | 3 of 9 (4.65) |
| GFTFDDYAMH | GISWNSGSIGYADSVK | VGRGGGRFDY | 5.57 nd nd | 5.57 | 1 of 9 (3.94) |
| GFTFTDYAMH | GISWNSGSIGYADSVK | VGRGGGTFDF | 2.43 2.22 1.28 | 1.98 | 5 of 9 (5.68) |
| GFTFDDYAMH | GIEWNSGSIGDADSVK | VGRGGGYDDY | 5.85 4.22 nd | 5.04 | 2 of 9 (4.68) |
| GFTIDDYAMH | GISWISGNIGYADSVK | VGRGGGYFDY | nd nd 2.11 | 2.11 | 0 of 9 |
| GFTFDDYAMH | RISWNSGSITYADSVK | IGRGGGYFDY | nd nd nd | nd | 1 of 9 (2.95) |
| GETFDDYAMH | GISWNSGSIGYAQSVK | VGRGGGYVDY | nd 3.34 nd | 3.34 | 0 of 9 |
| GFTFDDYAMH | TISWNSGGIGYYDSVK | VGRGGGYFDY | nd nd nd | nd | 0 of 9 |
| GFTFDDEARH | GISWYSGSIGYADSVK | VGRGGGYFDY | 6.13 nd nd | 6.13 | 0 of 9 |
| GHTFDDYAMH | GISWNSGSIGVADLVK | VGRGGGYFDY | nd nd nd | nd | 0 of 9 |
| GFTFDDYAMH | GISRNSGSIGYADSVK | GGRGGGMFDY | 2.83 3.01 3.44 | 3.09 | 0 of 9 |
| YFTFDDYAMH | GISTNSGSIGYADSVK | VGRGGGYFHY | 3.09 3.17 3.21 | 3.16 | 4 of 9 (4.26) |
| DFTFDDYAMH | GISWNSGSIGYADSVL | VGRGGEYFDY | nd nd nd | nd | 1 of 9 (3.62) |
| GFTGDDYAML | GISWNSGSIGYADSVK | VGRGGGYFWY | 5.63 nd nd | 5.63 | 1 of 9 (4.02) |
| GFTFIDYAMH | GISWNWGSIGYADTVK | VGRGGGYFDY | 4.01 nd nd | 4.01 | 1 of 9 (4.79) |
| GDTFDDYAMH | GISWNSGSIGYADKVK | VGRGIGYFDY | nd nd 4.33 | 4.33 | 2 of 9 (4.11) |
| GFTFDDYAMH | GISWNSGSIGWHDSVK | VGHGGGYFDY | 5.04 6.65 5.59 | 5.76 | 6 of 9 (4.50) |
| GCTFDDYAMH | GISWNSSNIGYADSVK | VGRGGGYFDY | nd nd nd | nd | 0 of 9 |
| GFTFDDYAMH | GILWNSQSIGYADSVG | VGRGGGYFDY | 4.80 nd nd | 4.80 | 1 of 9 (4.72) |
| SFTFDDYAMH | GISWNSGSIGVADSVK | VGRGGNYFDY | nd 4.29 nd | 4.29 | 0 of 9 |
| GFTFDDYAMH | GRSWNSGIIGYADSVK | VGRGGNYFDY | 5.06 nd nd | 5.06 | 1 of 9 (5.15) |
| GFTFDDYAMH | MISWNSGSIGYADSVV | VVRGGGYFDY | 4.45 5.89 4.15 | 4.83 | 1 of 9 (3.58) |
| GNHFDDYAMH | GISWNSGSIGYADSVK | VGRGGGAFDY | 0.85 0.67 0.02 | 0.51 | 0 of 9 |
| GFTPIDYAMH | GISWLSGSIGYADSVK | VGRGGGYFDY | nd nd 3.49 | 3.49 | 0 of 9 |
| GFCFDDYAHH | GISWNSGSIGYADSVK | VGRDGGYFDY | nd 3.52 nd | 3.52 | 1 of 9 (4.78) |
| GFTFDDYAQH | GISWNSGSIGRADSVK | VGRGCGYFDY | nd nd nd | nd | 3 of 9 (4.06) |
| GTTFDDYAMH | GISWNSGSVGDADSVK | VGRGGGYFDY | nd nd 4.30 | 4.30 | 1 of 9 (3.97) |
| GFTFDDYAMH | GISWNSGSIGYADSVK | FGRGGGYQDE | 6.22 4.38 nd | 5.30 | 3 of 9 (5.35) |
| GFTFDDYAMH | GISANSGSKGYADSVE | VGRGGGYFDY | 2.00 2.17 2.35 | 2.17 | 1 of 9 (3.70) |
| GFIFDDYCMH | GISWNSGSIGYADSVK | VGRGGGYFGY | nd nd nd | nd | 1 of 9 (4.23) |
| GFTFMDYAIH | GSSWNSGSIGYADSVK | VGRGGGYFDY | nd nd nd | nd | 0 of 9 |
| GFTFDDYAMH | GISWNSGSIGYADSVK | VGRGGGAFDY | 5.75 nd nd | 5.75 | 3 of 9 (4.49) |
| GFTFDCYAMH | GICWNSGSIGYADSVK | VGRGGGYFDY | nd nd nd | nd | 0 of 9 |
| GFTFDDYAMM | MISWNSGSIGYADSVK | VMRGGGYFDY | nd nd nd | nd | 0 of 9 |
| GFTFDDTAMH | GISWNSGSIGYADSMK | VGRGGGYFNY | nd nd nd | nd | 0 of 9 |
| GFTFDDYAMH | GIRWNSGSIGYADSVK | VGKGDGYFDY | 4.38 nd nd | 4.38 | 0 of 9 |
| GFTFMDYAMH | GISWNVGSIGYADSVK | VGRGGGFFDY | 3.78 4.26 3.86 | 3.97 | 1 of 9 (4.64) |
| GFTFDDYMMH | GPSSNSGSIGYADSVK | VGRGGGYFDY | 6.24 nd 4.92 | 5.58 | 5 of 9 (4.25) |

The closing 6 entries, repeated:

{"CDR-H1": "GFTFDCYAMH", "CDR-H2": "GICWNSGSIGYADSVK", "CDR-H3": "VGRGGGYFDY", "log10 Kd (nM) by replicate": "nd nd nd", "mean, log10 nM": "nd", "control signals": "0 of 9"}
{"CDR-H1": "GFTFDDYAMM", "CDR-H2": "MISWNSGSIGYADSVK", "CDR-H3": "VMRGGGYFDY", "log10 Kd (nM) by replicate": "nd nd nd", "mean, log10 nM": "nd", "control signals": "0 of 9"}
{"CDR-H1": "GFTFDDTAMH", "CDR-H2": "GISWNSGSIGYADSMK", "CDR-H3": "VGRGGGYFNY", "log10 Kd (nM) by replicate": "nd nd nd", "mean, log10 nM": "nd", "control signals": "0 of 9"}
{"CDR-H1": "GFTFDDYAMH", "CDR-H2": "GIRWNSGSIGYADSVK", "CDR-H3": "VGKGDGYFDY", "log10 Kd (nM) by replicate": "4.38 nd nd", "mean, log10 nM": "4.38", "control signals": "0 of 9"}
{"CDR-H1": "GFTFMDYAMH", "CDR-H2": "GISWNVGSIGYADSVK", "CDR-H3": "VGRGGGFFDY", "log10 Kd (nM) by replicate": "3.78 4.26 3.86", "mean, log10 nM": "3.97", "control signals": "1 of 9 (4.64)"}
{"CDR-H1": "GFTFDDYMMH", "CDR-H2": "GPSSNSGSIGYADSVK", "CDR-H3": "VGRGGGYFDY", "log10 Kd (nM) by replicate": "6.24 nd 4.92", "mean, log10 nM": "5.58", "control signals": "5 of 9 (4.25)"}